## Antibody variant affinities, Ab-95 light chain, assay 2

Data: MIT Lincoln Laboratory AlphaSeq set, Engelhart et al. 2022, doi:10.1038/s41597-022-01779-4, as distributed in FLAb.

Antigen: PDVDLGDISGINAS, a 14-residue peptide of the SARS-CoV-2 spike HR2 region.

Parent: Ab-95, a human scFv built as VH, a (GGGGS)3 linker, VL. Only the CDRs of the light chain vary.
VH: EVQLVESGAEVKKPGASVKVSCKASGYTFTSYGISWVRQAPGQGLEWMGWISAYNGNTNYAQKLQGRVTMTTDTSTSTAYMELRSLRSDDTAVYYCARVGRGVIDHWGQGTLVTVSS
VL: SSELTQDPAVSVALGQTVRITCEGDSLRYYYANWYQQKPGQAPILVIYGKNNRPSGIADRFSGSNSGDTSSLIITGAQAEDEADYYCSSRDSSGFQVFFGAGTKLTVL

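The starting antibody came from a phage panning campaign against this peptide. AAYL52 was designed without a model: most single CDR substitutions and a random sample of double and triple ones. In AlphaSeq, yeast of one mating type display the scFv and yeast of the other type display the target. After mating in shaken culture at 30 °C for 16 h, diploids were selected and their barcode pairs sequenced. Read counts were normalised to the haploid input and turned into Kd by a linear fit to BCL2-family pairs of known affinity, for each replicate. The assay was run in three technical replicates.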

Substitutions are numbered in sequence along the VL above, starting at 1 (not Kabat).
Values are log10 of the apparent Kd in nM; lower means stronger binding.
The mean shown is taken over the replicates in which the pair was detected.
Where no diploid with the target was found in any replicate, the entry reads "not detected": below detection, most likely a poor binder, though not proof of it.

{"changes": "E23H/F98W", "log10 Kd (nM), mean": "2.15", "replicates with signal": "3/3", "control signals": "2/9"}
{"changes": "S92C/S93G/V97K", "log10 Kd (nM), mean": "3.86", "replicates with signal": "3/3", "control signals": "2/9"}
{"changes": "Y29V/A32Y/D91Y", "log10 Kd (nM), mean": "not detected", "replicates with signal": "0/3", "control signals": "3/9"}
{"changes": "D25T/S92N", "log10 Kd (nM), mean": "3.23", "replicates with signal": "3/3", "control signals": "2/9"}
{"changes": "E23W/R53D/V97M", "log10 Kd (nM), mean": "3.27", "replicates with signal": "1/3", "control signals": "2/9"}
{"changes": "A32T/P54Q", "log10 Kd (nM), mean": "3.13", "replicates with signal": "3/3", "control signals": "6/9"}
{"changes": "S55Q/S89E/Q96M", "log10 Kd (nM), mean": "2.23", "replicates with signal": "3/3", "control signals": "2/9"}
{"changes": "D25N/L27V/S92W", "log10 Kd (nM), mean": "4.29", "replicates with signal": "2/3", "control signals": "3/9"}
{"changes": "G24S/N52C/G94E", "log10 Kd (nM), mean": "3.18", "replicates with signal": "1/3", "control signals": "1/9"}
{"changes": "K50A/S55C/F98G", "log10 Kd (nM), mean": "3.02", "replicates with signal": "3/3", "control signals": "2/9"}
{"changes": "S92W/V97N/F98A", "log10 Kd (nM), mean": "2.80", "replicates with signal": "3/3", "control signals": "2/9"}
{"changes": "N33A/S55E/F95I", "log10 Kd (nM), mean": "not detected", "replicates with signal": "0/3", "control signals": "2/9"}
{"changes": "G24V/R28Y/V97L", "log10 Kd (nM), mean": "4.29", "replicates with signal": "2/3", "control signals": "2/9"}
{"changes": "S26L/K50V/G94Q", "log10 Kd (nM), mean": "not detected", "replicates with signal": "0/3", "control signals": "3/9"}
{"changes": "E23F/D25Q/Y31A", "log10 Kd (nM), mean": "2.31", "replicates with signal": "3/3", "control signals": "6/9"}
{"changes": "R28F/S55A/S92P", "log10 Kd (nM), mean": "3.16", "replicates with signal": "3/3", "control signals": "3/9"}
{"changes": "R90G/F98D", "log10 Kd (nM), mean": "3.12", "replicates with signal": "3/3", "control signals": "2/9"}
{"changes": "S26A/A32V/G49P", "log10 Kd (nM), mean": "4.50", "replicates with signal": "2/3", "control signals": "3/9"}
{"changes": "E23Q/D25F/S89E", "log10 Kd (nM), mean": "3.91", "replicates with signal": "1/3", "control signals": "0/9"}
{"changes": "S26E/Y31L/F98V", "log10 Kd (nM), mean": "4.10", "replicates with signal": "1/3", "control signals": "0/9"}
{"changes": "S26A/N33F/F98P", "log10 Kd (nM), mean": "4.49", "replicates with signal": "1/3", "control signals": "2/9"}
{"changes": "R28K/S88G/S92M", "log10 Kd (nM), mean": "2.19", "replicates with signal": "3/3", "control signals": "4/9"}
{"changes": "S88N/G94S/Q96M", "log10 Kd (nM), mean": "3.34", "replicates with signal": "2/3", "control signals": "2/9"}
{"changes": "D25C/N52M", "log10 Kd (nM), mean": "3.26", "replicates with signal": "2/3", "control signals": "2/9"}
{"changes": "E23Q/A32F/Q96S", "log10 Kd (nM), mean": "3.58", "replicates with signal": "3/3", "control signals": "4/9"}
{"changes": "E23Q/N33K/Q96G", "log10 Kd (nM), mean": "3.12", "replicates with signal": "1/3", "control signals": "3/9"}
{"changes": "S55N/S89Q/G94Y", "log10 Kd (nM), mean": "not detected", "replicates with signal": "0/3", "control signals": "3/9"}
{"changes": "P54Y/D91T/G94K", "log10 Kd (nM), mean": "3.34", "replicates with signal": "3/3", "control signals": "4/9"}
{"changes": "G24I/D25R/S26E", "log10 Kd (nM), mean": "3.80", "replicates with signal": "2/3", "control signals": "2/9"}
{"changes": "N52H/S92R/S93W", "log10 Kd (nM), mean": "3.44", "replicates with signal": "3/3", "control signals": "3/9"}
{"changes": "L27I/S55L/D91V", "log10 Kd (nM), mean": "3.56", "replicates with signal": "3/3", "control signals": "3/9"}
{"changes": "R28Q/N33W/F98Q", "log10 Kd (nM), mean": "3.60", "replicates with signal": "2/3", "control signals": "4/9"}

From the list, the first 4 with no signal in any replicate:

changes,"log10 Kd (nM), mean",replicates with signal,control signals
Y29V/A32Y/D91Y,not detected,0/3,3/9
N33A/S55E/F95I,not detected,0/3,2/9
S26L/K50V/G94Q,not detected,0/3,3/9
S55N/S89Q/G94Y,not detected,0/3,3/9

Three control strains display no target. For library AAYL52, 28% of the pairings with them gave a signal, with a median of 3.91 and one signal in twenty below 2.90, so weak values seen in few replicates may be background. Also given: how often the same scFv was detected with the empty control strains.
In this assay the parent's reference entry averaged 2.31; its copy inside this library read 2.25.